The assay deals with T1, rCviUPO.
T1 construct: gene CviUPO
The conditions noted are these: read-out: rCviUPO; inhibition by excess substrate (same compound as substrate); 1 mM H2O2; 0.1 M acetate pH 4.0.

Turning to `CCn1c(=NN=c2sc3cc(S(=O)(=O)O)ccc3n2CC)sc2cc(S(=O)(=O)O)ccc21` [ABTS, 2,2′-azino-bis(3-ethylbenzothiazoline-6-sulfonic acid)], the Km amounted to 239 ± 8 µM.
